Test results from PMC12102759 (Protein Science : A Publication of the Protein Society, 2025).

Chains of the proteins cited; added tags and fusions are not shown. Residues count along the entry.
UniProt Q9Y490, 309-401: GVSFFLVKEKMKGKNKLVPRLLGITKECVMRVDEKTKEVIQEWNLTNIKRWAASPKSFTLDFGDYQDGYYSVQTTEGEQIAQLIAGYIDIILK

Biological target: TLN1 PTB (Homo sapiens, UniProt Q9Y490)
Assay type: binding

Substance | DMS-derived PSSM value of the single-substitution variant | DMS-derived PSSM value, averaged over the two overlapping peptides
FPTDERSWVYSPLHYS Y15N (FPTDERSWVYSPLHNS) | 0.006192 | 
FPTDERSWVYSPLHYS S7V (FPTDERVWVYSPLHYS) | 0.01687 | 
TDERSWVYSPLHYSAQ W6H (TDERSHVYSPLHYSAQ) | 0 | 
TDERSWVYSPLHYSAQ P10P | 0.1798 | 
FPTDERSWVYSPLHYS Y15S (FPTDERSWVYSPLHSS) | 0.04773 | 
TDERSWVYSPLHYS(averaged) W6Q (TDERSQVYSPLHYS) |  | 0.03535
TDERSWVYSPLHYS(averaged) Y13M (TDERSWVYSPLHMS) |  | 0.0194
TDERSWVYSPLHYSAQ D2P (TPERSWVYSPLHYSAQ) | 0.02385 | 
FPTDERSWVYSPLHYS V9L (FPTDERSWLYSPLHYS) | 0.03511 | 
FPTDERSWVYSPLHYS V9H (FPTDERSWHYSPLHYS) | 0.01572 | 
TDERSWVYSPLHYSAQ V7P (TDERSWPYSPLHYSAQ) | 0.0002617 | 
TDERSWVYSPLHYSAQ W6W | 0.8573 | 
TDERSWVYSPLHYS(averaged) E3N (TDNRSWVYSPLHYS) |  | 0.07542
FPTDERSWVYSPLHYS E5V (FPTDVRSWVYSPLHYS) | 0.02298 | 
FPTDERSWVYSPLHYS P12Y (FPTDERSWVYSYLHYS) | 0.0108 | 
TDERSWVYSPLHYS(averaged) H12E (TDERSWVYSPLEYS) |  | 0.06074
TDERSWVYSPLHYSAQ W6V (TDERSVVYSPLHYSAQ) | 0.01735 | 
TDERSWVYSPLHYSAQ S5Q (TDERQWVYSPLHYSAQ) | 0.01157 | 
TDERSWVYSPLHYS(averaged) S14Q (TDERSWVYSPLHYQ) |  | 0.01267
FPTDERSWVYSPLHYS Y10T (FPTDERSWVTSPLHYS) | 0.09994 | 
TDERSWVYSPLHYS(averaged) E3L (TDLRSWVYSPLHYS) |  | 0.1424
TDERSWVYSPLHYS(averaged) E3R (TDRRSWVYSPLHYS) |  | 0.01375

Substance | DMS-derived PSSM value of the single-substitution variant | DMS-derived PSSM value, averaged over the two overlapping peptides
TDERSWVYSPLHYS(averaged) Y8M (TDERSWVMSPLHYS) |  | 0.03131
TDERSWVYSPLHYSAQ H12M (TDERSWVYSPLMYSAQ) | 0.04333 | 
TDERSWVYSPLHYSAQ S9W (TDERSWVYWPLHYSAQ) | 0 | 
TDERSWVYSPLHYS(averaged) S14H (TDERSWVYSPLHYH) |  | 0.05333
FPTDERSWVYSPLHYS T3I (FPIDERSWVYSPLHYS) | 0.01059 | 
TDERSWVYSPLHYS(averaged) E3M (TDMRSWVYSPLHYS) |  | 0.04008
FPTDERSWVYSPLHYS D4H (FPTHERSWVYSPLHYS) | 0.08834 | 
FPTDERSWVYSPLHYS W8G (FPTDERSGVYSPLHYS) | 0 | 
TDERSWVYSPLHYS(averaged) D2K (TKERSWVYSPLHYS) |  | 0.001257
FPTDERSWVYSPLHYS E5D (FPTDDRSWVYSPLHYS) | 0.00185 | 
TDERSWVYSPLHYSAQ R4D (TDEDSWVYSPLHYSAQ) | 0.2233 | 
TDERSWVYSPLHYSAQ W6Y (TDERSYVYSPLHYSAQ) | 0.004839 | 
TDERSWVYSPLHYS(averaged) S5T (TDERTWVYSPLHYS) |  | 0.1201
TDERSWVYSPLHYSAQ T1P (PDERSWVYSPLHYSAQ) | 0.03125 | 
TDERSWVYSPLHYS(averaged) D2D |  | 0.1107
FPTDERSWVYSPLHYS P12L (FPTDERSWVYSLLHYS) | 0.1462 | 
FPTDERSWVYSPLHYS V9S (FPTDERSWSYSPLHYS) | 0.02044 | 
TDERSWVYSPLHYS(averaged) Y8S (TDERSWVSSPLHYS) |  | 0.1506
TDERSWVYSPLHYS(averaged) Y8T (TDERSWVTSPLHYS) |  | 0.1088
FPTDERSWVYSPLHYS T3R (FPRDERSWVYSPLHYS) | 0.02199 | 
TDERSWVYSPLHYSAQ S14E (TDERSWVYSPLHYEAQ) | 0.004715 | 
TDERSWVYSPLHYS(averaged) Y13F (TDERSWVYSPLHFS) |  | 0.1157

Substance | DMS-derived PSSM value of the single-substitution variant | DMS-derived PSSM value, averaged over the two overlapping peptides
TDERSWVYSPLHYS(averaged) E3H (TDHRSWVYSPLHYS) |  | 0.03203
TDERSWVYSPLHYSAQ W6F (TDERSFVYSPLHYSAQ) | 0.03325 | 
TDERSWVYSPLHYSAQ Y8G (TDERSWVGSPLHYSAQ) | 0.004462 | 
TDERSWVYSPLHYS(averaged) D2I (TIERSWVYSPLHYS) |  | 0.0151
FPTDERSWVYSPLHYS W8K (FPTDERSKVYSPLHYS) | 0 | 
TDERSWVYSPLHYS(averaged) S5K (TDERKWVYSPLHYS) |  | 0.03356
FPTDERSWVYSPLHYS T3P (FPPDERSWVYSPLHYS) | 0.03563 | 
TDERSWVYSPLHYS(averaged) Y13E (TDERSWVYSPLHES) |  | 0.02565
TDERSWVYSPLHYS(averaged) R4K (TDEKSWVYSPLHYS) |  | 0.006915
TDERSWVYSPLHYSAQ Y13F (TDERSWVYSPLHFSAQ) | 0.05082 | 
TDERSWVYSPLHYSAQ P10Y (TDERSWVYSYLHYSAQ) | 0.008467 | 
TDERSWVYSPLHYSAQ Y13R (TDERSWVYSPLHRSAQ) | 0.007546 | 
TDERSWVYSPLHYS(averaged) L11N (TDERSWVYSPNHYS) |  | 0.008044
TDERSWVYSPLHYSAQ S14T (TDERSWVYSPLHYTAQ) | 0.1659 | 
FPTDERSWVYSPLHYS V9A (FPTDERSWAYSPLHYS) | 0.006908 | 
TDERSWVYSPLHYS(averaged) S9I (TDERSWVYIPLHYS) |  | 0.0005722
FPTDERSWVYSPLHYS P12F (FPTDERSWVYSFLHYS) | 0.01515 | 
TDERSWVYSPLHYSAQ S9D (TDERSWVYDPLHYSAQ) | 0.006284 | 
FPTDERSWVYSPLHYS E5W (FPTDWRSWVYSPLHYS) | 0.09877 | 
FPTDERSWVYSPLHYS L13P (FPTDERSWVYSPPHYS) | 0.002338 | 
